One assay has as its system HCT116 cells. Put plainly: MTT assay. The settings on record: read-out: MTT (HCT116) IC50, Table 5F, 72 hours. For orientation: Tetrazolium assays rely on reduction of a dye to a coloured formazan, in cell work by metabolically active cells.
The target in assay [1] is cloned recombinant human HDAC-1 (Homo sapiens, UniProt Q13547). Put plainly: Human HDAC-1 enzyme inhibition, Assay 1 ([3H]-acetylated histone substrate, scintillation counting). The settings on record: read-out: Human HDAC-1 IC50; Table 5F. The assay is classed as biochemical.
Assay [2] deals with acetylated histone H-4 in T24 human bladder cancer cells. Kind of assay: Histone H4 acetylation in whole cells by immunoblots. The settings on record: read-out: H4 Ac (T24) EC50, Table 5F, 16 h. On the technique in general: In western blotting, separated proteins are transferred to a membrane and probed.

By UniProt entry, the sequences of proteins in these tests, tags left out.
UniProt Q13547, whole entry: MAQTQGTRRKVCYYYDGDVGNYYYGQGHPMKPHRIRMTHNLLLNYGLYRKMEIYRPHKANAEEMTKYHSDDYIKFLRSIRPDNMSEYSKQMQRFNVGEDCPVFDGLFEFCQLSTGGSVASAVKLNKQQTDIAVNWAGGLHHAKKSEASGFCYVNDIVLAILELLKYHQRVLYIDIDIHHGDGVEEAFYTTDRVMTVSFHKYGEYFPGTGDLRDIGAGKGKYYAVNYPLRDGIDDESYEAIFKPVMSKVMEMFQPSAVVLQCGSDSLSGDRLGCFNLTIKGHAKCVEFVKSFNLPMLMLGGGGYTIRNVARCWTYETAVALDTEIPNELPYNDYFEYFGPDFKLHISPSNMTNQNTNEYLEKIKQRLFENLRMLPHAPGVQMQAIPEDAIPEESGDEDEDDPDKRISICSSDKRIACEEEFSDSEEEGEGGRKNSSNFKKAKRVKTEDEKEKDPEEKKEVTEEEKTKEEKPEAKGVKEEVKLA

The results in this text go back to patent US7868204B2, “Inhibitors of histone deacetylase” (MethylGene Inc., priority 2001, dated 2011).

Regarding `Nc1ccccc1NC(=O)c1ccc(CC2COc3ccccc3C2=O)cc1` (stereo not drawn), the IC50 in the assay on HCT116 cells is 900 nM; in assay [1], 400 nM. In assay [2], the EC50 amounted to 2000 nM.

As usually defined, the IC50 is the point on the concentration scale where inhibition reaches its midpoint. The EC50 is the concentration giving half of the maximal effect.
